3 substances from US7964219B2, “Pharmaceutical compositions for controlled release delivery of biologically active compounds” (QPS, LLC, priority 2004, dated 2011) can be followed below.

Assay in series [1]: not given
This is another data set of the same source.

A short description of series [2]: Stability of octreotide in injectable formulations at room temperature by HPLC (Example 12). On the procedure:
Injectable formulations of octreotide were prepared by dispersing octreotide in polymer solution in an appropriate solvent. […] The mixture was thoroughly mixed until a uniform suspension or solution was obtained. Six injectable formulations were prepared as shown below.
The stability of octreotide in the above injectable formulations at room temperature was monitored by HPLC and the results are shown in the table below.

Like-named read-outs stand apart in the source and are kept apart here.

On to doxorubicin phytate, for which the Solubility entry is, setting by setting: (DMSO) “Soluble”; (PBS (pH 7.4)) 11.2 µg/mL.

For tetracaine phytate, the Solubility was 2700 µg/mL in series [1] (Acetate Buffer (pH 4.5)) and 7500 µg/mL in series [1] (PBS (pH 7.4)).

octreotide phytate: the “Stability of octreotide (degradation)” value in series [2] (PLGA solutions in NMP, room temperature over time) was “slight degradation of octreotide”. The “Stability of octreotide (degradation and/or acylation)” value in series [2] (PLGA solutions in mPEG and PEGDM, room temperature) is recorded as “completely prevented the degradation and/or acylation of octreotide”.

Usually Solubility stands for how much of the substance goes into solution per volume.
